According to US5756504A, “Tocolytic oxytocin receptor antagonists” (priority 1996, dated 1998):

Target: T1, human myometrium ([^3 H]oxytocin binding site) (Homo sapiens, UniProt P30559)
T1 construct: tissue Oregon Health Sciences Center, Portland, Oreg; host or cells: full-thickness uterine tissue of nonlabor pregnant women at cesarean section, crude membranes
T1 sequence (P30559 1-389): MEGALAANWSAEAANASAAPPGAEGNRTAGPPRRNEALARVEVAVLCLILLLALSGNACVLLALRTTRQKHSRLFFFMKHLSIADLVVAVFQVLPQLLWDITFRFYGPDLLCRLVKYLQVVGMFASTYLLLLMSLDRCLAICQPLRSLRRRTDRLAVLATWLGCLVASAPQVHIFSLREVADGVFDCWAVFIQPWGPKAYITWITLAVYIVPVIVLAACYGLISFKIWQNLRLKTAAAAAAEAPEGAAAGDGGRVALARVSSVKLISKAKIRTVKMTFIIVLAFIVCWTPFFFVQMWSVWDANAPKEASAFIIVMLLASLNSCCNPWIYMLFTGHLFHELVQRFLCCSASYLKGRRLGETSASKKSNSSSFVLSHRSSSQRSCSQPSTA
Assay: [3H]OT equilibrium saturation binding, human myometrium
Details: mean, n=3 saturation binding assays
Experimental: Ther., 256(1): 304-308 (1991)]. Uterine tissue was taken from nonpregnant adult Sprague-Dawley rats (Taconic Farms, Germantown, N.Y.) pretreated (18-24 h) with diethylstilbestrol propionate (DES; 300 μg/kg, i.p.). Uterine tissue (full thickness) was also taken with informed consent from nonlabor pregnant women undergoing cesarean section at 38 to 39 weeks gestation (Oregon Health Sciences Center, Portland, Oreg.). Liver and kidney medulla samples were taken from male rats and from human surgical and early postmortem donors (National Disease Research Interchange, Philadelphia Pa.; Analytical Biological Services, Wilmington, Del.).
Nonspecific binding was determined using 1 μM unlabeled OT or AVP in their respective assays. The binding reactions were initiated by the addition of tissue preparation and terminated by filtration using a Skatron cell harvester (model 7019, Skatron, Inc., Sterling, Va.). […] The final protein concentration for the various tissues in each assay ranged from 150 to 300 μg/ml [Lowry, P. H.; Rosebrough, N. J.; Farr, A. L.; Randall, R. J.; J. Biol. Chem., 193:265-275 (1951)].

[^3 H]oxytocin [[^3 H]OT]
Kd: 1.1 nM
